Test results: US6077519A, “Methods for isolation and use of T cell epitopes eluted from viable cells in vaccines for treating cancer patients” (University of Pittsburgh, priority 1997, dated 2000)

Assays:
[1] = system: Mel 624; test: induction of anti-melanoma CTL from normal donor PBMC by peptide-pulsed autologous DC, lysis of Mel 624; assay type: cell-based, human
[2] = system: Mel 624; test: induction of anti-melanoma CTL from melanoma patient PBMC by peptide-pulsed autologous DC, lysis of Mel 624; assay type: cell-based, human
From the text: Heparinized peripheral blood was obtained by venipuncture from 15 HLA-A2^+ normal donors and 10 HLA-A2^+ donors with AJCC Stage III or IV melanoma treated at the University of Pittsburgh Cancer Institute/University of Pittsburgh School of Medicine. Peripheral blood mononuclear cells ("PBMC") were obtained after density centrifugation on Ficoll-Hypaque gradients per the manufacturer's protocol (LSM, Organon-Teknika, Durham, N.C.). After 4-5 washes in Hank's Buffered Saline (HBSS from GIBCO-BRL, Gaithersburg, Md.), 10^8 cells/10 ml of serum-free AIM-V medium (GIBCO-BRL) were placed in T75 flasks (COSTAR, Cambridge, Mass.) and incubated for 1-1.5 hours at 37° C., 5% CO2 to allow for cell attachment. Non-adherent cells were frozen in liquid nitrogen in 90% fetal bovine serum/10% DMSO and were retained as T cell enriched responder populations. Plastic adherent cells were cultured for 5-7 days in AIM-V medium supplemented with 1000 U rIL-4/ml+1000 U rGM-CSF/ml at 37° C., 5% CO2 and served as the source of autologous dendritic cells. No medium was added or removed during this culture period. Non-adherent cells were harvested and DCs were purified further by discontinuous density centrifugation on a layer of Nycoprep 1.064 (GIBCO-BRL):LSM (9:1), 800 g×15 minutes. Gradient interface cells were harvested, washed with HBSS, and used in phenotypic and functional assays, as outlined below. Cells generated in this way were determined to be greater than 90% DC based on morphology and the expression of a CD1a+, CD1b+, CD1c+, CD3-, CD14-, CD16-, CD20-, CD40+, CD80+, CD83+, CD86+, MHC class II+phenotype assessed by flow cytometry. […]
Plastic non-adherent DC (1-2×10^6) were harvested from IL-4+GM-CSF cultures on days 7, 14, 21, and 28, and washed twice with HBSS. […] Each week a portion of the cultured T cells were harvested and evaluated for their ability to mediate cytolysis of the allogeneic HLA-A2+Mel 624 target cell in 4 h ^51 Chromium (^51 Cr)-release assays. […]

[3] = lysis of Mel 624 >20% at E:T 10:1, >80% inhibited by BB7.2

## AAGIGILTV [MART-1 27-35]
[1]; [3]
  Normal PBL Response (responders/donors): 11/12
[1]; normal donors
  Peak week of CTL reactivity, Normal PBL: 3-4 wk
[2]; [3]
  Patient PBL Response (responders/patients): 9/10
[2]; melanoma patients
  Peak week of CTL reactivity, Patient PBL: 3-4 wk
  immunodominance by kinetics and magnitude of response: immunodominant epitopes
